## Antibody variant affinities, Ab-14 heavy chain, assay 1

Reference: Engelhart et al. 2022, doi:10.1038/s41597-022-01779-4. File: FLAb, binding data.

All variants were tested on one target, the spike HR2 peptide PDVDLGDISGINAS (SARS-CoV-2).

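Phage display of a naive human antibody library on the peptide gave the parent. In library AAYL49, one, two or three CDR residues were substituted; doubles and triples were drawn at random. The scFvs were displayed on barcoded MATa yeast, the peptide on MATalpha yeast. The frequency of each diploid, read from paired DNA barcodes, reflects how well the two displayed proteins bind. A regression on co-assayed BCL2-family reference pairs converts the normalised counts of each replicate to an apparent Kd. Mating was done three times.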

Parent: Ab-14, a human scFv built as VH, a (GGGGS)3 linker, VL. Only the CDRs of the heavy chain vary.
VH: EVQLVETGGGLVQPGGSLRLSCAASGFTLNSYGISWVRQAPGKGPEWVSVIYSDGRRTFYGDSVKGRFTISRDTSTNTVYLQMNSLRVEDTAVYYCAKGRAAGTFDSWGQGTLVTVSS
VL: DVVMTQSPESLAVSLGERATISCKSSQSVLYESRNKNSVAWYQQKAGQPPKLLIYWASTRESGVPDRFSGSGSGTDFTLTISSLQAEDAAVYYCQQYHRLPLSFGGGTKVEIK

Positions count from residue 1 of the parent VH; F59L puts L in place of F.
Affinities are written as log10 Kd with Kd in nM; a lower number is a better binder.
Where no diploid with the target was found in that replicate, the entry reads "ND": below detection, most likely a poor binder, though not proof of it.
Parent in this assay: reference entry 0.65, copy in this library 4.11 (one replicate of three).
As a blank, each scFv also met three strains without target: over library AAYL49, 15% of these pairings were detected, typically at 4.06 and seldom below 2.83. Also given: how often the same scFv was detected with the empty control strains, with their mean in brackets.

{"changes": "F59L/K65S/D106P", "log10 Kd, replicates": "ND / ND / 5.68", "control signals": "1/9 (3.29)"}
{"changes": "F27M/G55K/R100Q", "log10 Kd, replicates": "ND / ND / ND", "control signals": "0/9"}
{"changes": "F59M/V64H/A102V", "log10 Kd, replicates": "3.47 / ND / ND", "control signals": "5/9 (4.17)"}
{"changes": "S31Q/S35N/A102P", "log10 Kd, replicates": "1.22 / ND / 2.31", "control signals": "1/9 (2.80)"}
{"changes": "F27H/L29R", "log10 Kd, replicates": "ND / ND / ND", "control signals": "0/9"}
{"changes": "I34E/Y60G/A102L", "log10 Kd, replicates": "4.08 / 3.62 / ND", "control signals": "6/9 (3.82)"}
{"changes": "T28R/R100Y", "log10 Kd, replicates": "4.31 / 3.58 / 3.16", "control signals": "2/9 (3.35)"}
{"changes": "V50W/I51K/D54E", "log10 Kd, replicates": "ND / ND / ND", "control signals": "0/9"}
{"changes": "F27V/Y32V/V64F", "log10 Kd, replicates": "4.56 / 3.75 / 4.85", "control signals": "5/9 (4.88)"}
{"changes": "G33M/D62M/R100Q", "log10 Kd, replicates": "ND / ND / ND", "control signals": "0/9"}
{"changes": "S31K/A101N", "log10 Kd, replicates": "1.20 / 1.16 / 1.83", "control signals": "0/9"}
{"changes": "N30P/G99D/F105C", "log10 Kd, replicates": "ND / ND / ND", "control signals": "0/9"}
{"changes": "V50A/G103Y", "log10 Kd, replicates": "5.67 / 3.99 / 4.32", "control signals": "7/9 (4.44)"}
{"changes": "R56I/F105I/S107C", "log10 Kd, replicates": "ND / ND / ND", "control signals": "2/9 (4.11)"}
{"changes": "T104R/F105Y/D106K", "log10 Kd, replicates": "ND / ND / ND", "control signals": "0/9"}
{"changes": "Y52D/V64C", "log10 Kd, replicates": "6.27 / 4.44 / ND", "control signals": "6/9 (4.06)"}
{"changes": "Y32P/R57A/T104Y", "log10 Kd, replicates": "ND / 4.70 / ND", "control signals": "0/9"}
{"changes": "G55C/G61S/D62M", "log10 Kd, replicates": "ND / ND / ND", "control signals": "1/9 (4.27)"}
{"changes": "F27T/A101F/A102S", "log10 Kd, replicates": "ND / 4.19 / 3.86", "control signals": "2/9 (3.90)"}
{"changes": "D54A/F59Y", "log10 Kd, replicates": "ND / ND / ND", "control signals": "0/9"}
{"changes": "Y32M/S63K/S107R", "log10 Kd, replicates": "ND / ND / ND", "control signals": "2/9 (3.88)"}
{"changes": "Y52W/D54F/D106H", "log10 Kd, replicates": "ND / 3.14 / ND", "control signals": "2/9 (3.53)"}
{"changes": "Y32E/I51T/K65Q", "log10 Kd, replicates": "5.98 / ND / 5.85", "control signals": "2/9 (5.06)"}
{"changes": "G33M/F59P/Y60A", "log10 Kd, replicates": "ND / ND / ND", "control signals": "2/9 (4.49)"}
{"changes": "D54E/R56W/T58N", "log10 Kd, replicates": "ND / ND / ND", "control signals": "0/9"}
{"changes": "R57V/D62A/K65E", "log10 Kd, replicates": "5.86 / 4.10 / 3.57", "control signals": "7/9 (4.09)"}
{"changes": "G61N/V64L/T104R", "log10 Kd, replicates": "ND / ND / ND", "control signals": "1/9 (2.59)"}
{"changes": "S31N/I34T/G99C", "log10 Kd, replicates": "ND / ND / 4.26", "control signals": "2/9 (4.99)"}
{"changes": "I51W/R56Q/A101Q", "log10 Kd, replicates": "ND / ND / ND", "control signals": "0/9"}
{"changes": "V50C/G61V/F105L", "log10 Kd, replicates": "5.88 / 3.64 / ND", "control signals": "4/9 (4.93)"}
{"changes": "Y52L/R57L/V64H", "log10 Kd, replicates": "ND / ND / ND", "control signals": "1/9 (3.31)"}
{"changes": "G33Q/G55E/A101H", "log10 Kd, replicates": "ND / ND / ND", "control signals": "1/9 (3.21)"}

Again, the first 2 entries without any signal:

{"changes": "F27M/G55K/R100Q", "log10 Kd, replicates": "ND / ND / ND", "control signals": "0/9"}
{"changes": "F27H/L29R", "log10 Kd, replicates": "ND / ND / ND", "control signals": "0/9"}